{"source": "patent US8309129B2", "about": "“Nanoparticles comprising a drug, ethylcellulose, and a bile salt” (Bend Research, Inc., priority 2007, dated 2012)", "assay": "Nanoparticle dissolution test of celecoxib in MFDS", "format": "physicochemical", "conditions": "PBS with 0.5 wt % NaTC/POPC (MFDS), ambient temperature, 100,000-dalton cutoff filtrate", "data": [{"smiles": "Cc1ccc(-c2cc(C(F)(F)F)nn2-c2ccc(S(N)(=O)=O)cc2)cc1", "note": "[Crystalline celecoxib, celecoxib]", "values": [{"measurement": "Celecoxib Concentration at 1 minute", "result": 0.7, "unit": "µg/mL"}]}]}
